Measurements: PMC10604324, “Implications for Combination Therapy of Selective Monoamine Reuptake Inhibitors on Dopamine Transporters” (Biomedicines, 2023)

Amino acid sequences for entries named in this document (tags omitted).
UniProt Q01959, whole entry: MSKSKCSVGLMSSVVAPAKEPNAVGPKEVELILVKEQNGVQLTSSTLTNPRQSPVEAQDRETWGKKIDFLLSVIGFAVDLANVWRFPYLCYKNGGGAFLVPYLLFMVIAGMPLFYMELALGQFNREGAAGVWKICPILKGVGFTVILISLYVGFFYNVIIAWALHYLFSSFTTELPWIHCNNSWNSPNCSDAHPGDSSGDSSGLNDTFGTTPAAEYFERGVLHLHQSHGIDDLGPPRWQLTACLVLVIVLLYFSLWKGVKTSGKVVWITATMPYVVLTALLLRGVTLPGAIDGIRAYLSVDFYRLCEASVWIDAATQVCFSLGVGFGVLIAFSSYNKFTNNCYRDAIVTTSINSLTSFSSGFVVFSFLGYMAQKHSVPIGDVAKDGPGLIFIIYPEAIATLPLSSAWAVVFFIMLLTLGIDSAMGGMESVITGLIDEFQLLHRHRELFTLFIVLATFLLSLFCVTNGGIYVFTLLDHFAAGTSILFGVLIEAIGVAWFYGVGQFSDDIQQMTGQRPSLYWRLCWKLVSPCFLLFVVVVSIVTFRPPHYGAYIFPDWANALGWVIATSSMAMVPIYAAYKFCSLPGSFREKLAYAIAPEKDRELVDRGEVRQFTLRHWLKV

Molecular target: human DAT (Homo sapiens, UniProt Q01959)
Experiment: Fluorescence-based neurotransmitter uptake assay, HEK-hDAT cells
Settings: monovalent ions

C[N+](C)(C)CCO [Choline]
fold lower potency for DAT inhibition than the other ions tested: approximately 10 fold
